# Results as given in article PMC10244169, “Psychedelics promote plasticity by directly binding to BDNF receptor TrkB” (Nature Neuroscience, 2023).
# Chains of the proteins cited; added tags and fusions are not shown. Residues count along the entry.
# UniProt Q63604, 32-821: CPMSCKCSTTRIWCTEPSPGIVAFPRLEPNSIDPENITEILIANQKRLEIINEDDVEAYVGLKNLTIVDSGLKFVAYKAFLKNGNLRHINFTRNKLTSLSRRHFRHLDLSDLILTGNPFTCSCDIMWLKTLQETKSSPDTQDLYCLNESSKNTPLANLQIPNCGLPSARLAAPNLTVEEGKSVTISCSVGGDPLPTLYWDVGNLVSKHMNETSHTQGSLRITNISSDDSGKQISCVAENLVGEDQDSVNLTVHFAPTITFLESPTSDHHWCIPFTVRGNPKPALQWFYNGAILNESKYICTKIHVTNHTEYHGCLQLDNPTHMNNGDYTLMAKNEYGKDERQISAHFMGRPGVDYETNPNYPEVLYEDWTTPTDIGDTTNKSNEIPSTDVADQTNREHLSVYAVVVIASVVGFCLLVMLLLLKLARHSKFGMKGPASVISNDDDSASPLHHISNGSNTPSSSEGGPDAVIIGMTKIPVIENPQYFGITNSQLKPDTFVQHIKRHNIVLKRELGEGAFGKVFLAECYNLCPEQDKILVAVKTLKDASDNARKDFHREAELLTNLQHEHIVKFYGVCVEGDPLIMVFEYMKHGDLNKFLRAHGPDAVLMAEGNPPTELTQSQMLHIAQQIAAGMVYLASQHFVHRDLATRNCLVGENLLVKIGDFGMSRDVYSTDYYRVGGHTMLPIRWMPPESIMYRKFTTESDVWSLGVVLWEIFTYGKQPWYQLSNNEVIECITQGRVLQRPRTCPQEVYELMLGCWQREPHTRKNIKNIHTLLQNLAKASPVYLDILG
# Target: T1, TrkB (Rattus norvegicus, UniProt Q63604)
# T1 construct: expressed in transfected cells; host or cells: HEK293T
# Assay type: binding
# Settings: competition with ^3H-LSD
smiles,measurement,value
CNCCC(Oc1ccc(C(F)(F)F)cc1)c1ccccc1 (centres unmarked) [fluoxetine],"Bmax (best-fit, 1b)",88.95
same,"h (best-fit, 1b)",-0.8265
